Results published in PMC10616699.

Target: myofilaments of membrane-permeabilized human cardiomyocytes (human (endogenous in cardiomyocytes))
Assay: troponin exchange in permeabilized cardiomyocytes, read by phos-tag gel of cTnI; membrane-permeabilized cells of a highly phosphorylated human sample incubated with different concentrations of non-phosphorylated recombinant troponin complex; exchange as percent non-phosphorylated cTnI of total cTnI; exponential plateau curve fit (Ymax, k), n = 2

k (rate constant of the exponential plateau fit of exchange percentage against complex concentration) | Substance
3.1 | recombinant human cardiac troponin complex with cTnT R278C (from UniProt P45379-6 1-288; P19429 1-210; P63316 1-161)
6.2 | recombinant human cardiac troponin complex with cTnT R94C (from UniProt P45379-6 1-288; P19429 1-210; P63316 1-161)
15 | recombinant human cardiac troponin complex, wild-type (from UniProt P45379-6 1-288; P19429 1-210; P63316 1-161)
22.2 | recombinant human cardiac troponin complex with cTnT I79N (from UniProt P45379-6 1-288; P19429 1-210; P63316 1-161)
